Half-life, inhibition and Activity data for seven compounds are collected here from ChEMBL document CHEMBL4417631, “Oral peptide inhibitors of interleukin-23 receptor and their use to treat inflammatory bowel diseases” (2017).

Activity calls are given as the source filed them. The calls are words filed in the database; no cut-off is given here. Where only a bound is given, the exact number is not on record here.

Series [1] in a line: Half life in simulated gastric fluid at 20 uM by LC-MS/MS analysis. Type of series: ADME.
Series [2] in a line: Half life in simulated intestinal fluid at 20 uM by LC-MS/MS analysis. The class given is ADME.
The nature of series [3]: Half life in DTT at 50 uM up up to 120 mins by reverse phase HPLC and UV detection based assay. The class given is physicochemical.
The subject of a further series is PBMC. Kind of series: Inhibition of IL12-stimulated IFNgamma production in PHA-activated human PBMC at 0.0001 to 100 uM by ELISA. Type of series: functional, cell-based.
In series [4] the test system is Rattus norvegicus. Kind of series: Anti-colitis activity in Sprague-Dawley rat model of DSS-induced colitis assessed as change in body weight at 20 mg/kg, po dosed 3 times per day (-6.39 +/- 1.11%). Type of series: functional.
For series [5], the system named is Rattus norvegicus. Kind of series: Anti-colitis activity in Sprague-Dawley rat model of DSS-induced colitis assessed as change in body weight at 30 mg/kg, ip dosed 3 times per day (-6.39 +/- 1.11%). The class given is functional.
The subject of series [6] is Rattus norvegicus. Briefly: Anti-colitis activity in Sprague-Dawley rat model of DSS-induced colitis assessed as reduction in colon macroscopic scores at 20 mg/kg, po dosed 3 times per day. The class given is functional, organism-based.
In series [7] the test system is Rattus norvegicus. Kind of series: Anti-colitis activity in Sprague-Dawley rat model of DSS-induced colitis assessed as improvement in stool consistency scores level at 20 mg/kg, po dosed 3 times per day. The class given is functional, organism-based.
Series [8] relates to Rattus norvegicus. Briefly: Anti-colitis activity in Sprague-Dawley rat model of DSS-induced colitis assessed as improvement in hematocrit scores level at 20 mg/kg, po dosed 3 times per day. Type of series: functional, organism-based.

On to `CC(=O)N[C@H]1CCSC[C@@H](C(=O)N[C@@H](Cc2ccc(OCCN)cc2)C(=O)N[C@@H](Cc2ccc3ccccc3c2)C(=O)N[C@@](C)(CCCCN)C(=O)N[C@@H](CCC(=O)O)C(=O)N[C@@H](CC(N)=O)C(=O)N[C@@H](CC(N)=O)C(N)=O)NC(=O)[C@H](CCC(N)=O)NC(=O)[C@H](Cc2c[nH]c3ccccc23)NC(=O)[C@H]([C@@H](C)O)NC(=O)[C@H](CCC(N)=O)NC1=O`, for which the half-life at 20 µM in series [1] and in [2] was 3 to 6 h throughout.

For the compound `COc1ccc(C[C@H](NC(=O)[C@@H]2CSCC[C@H](NC(C)=O)C(=O)N[C@@H](CCC(N)=O)C(=O)N[C@@H]([C@@H](C)O)C(=O)N[C@@H](Cc3c[nH]c4ccccc34)C(=O)N[C@@H](CCC(N)=O)C(=O)N2)C(=O)N[C@@H](Cc2ccc3ccccc3c2)C(=O)N[C@@](C)(CCCCN)C(=O)N[C@@H](CCC(=O)O)C(=O)N[C@@H](CC(N)=O)C(=O)NCC(N)=O)cc1`, the half-life at 20 µM in series [1] is less than 1 h; in series [2], 2 to 3 h. In addition, the half-life at 50 µM in [3] was greater than 2 h. Moreover, in the series with PBMC, the inhibition result is “inactive”. In addition, the Activity in the series with Rattus norvegicus [4] was 3.18%; in the series on Rattus norvegicus [5], -0.5%. Further, the outcome in the series with Rattus norvegicus [6], in the series with Rattus norvegicus [7] and in the series on Rattus norvegicus [8] was Active.

Take `CC(=O)N[C@H](CCC(N)=O)C(=O)N[C@H]1CCSC[C@@H](C(=O)N[C@@H](Cc2ccc(OCCN)cc2)C(=O)N[C@@H](Cc2ccc3ccccc3c2)C(=O)N[C@@](C)(CCCCN)C(=O)N[C@@H](CCC(=O)O)C(=O)N[C@@H](CC(N)=O)C(=O)N[C@@H](CC(N)=O)C(N)=O)NC(=O)[C@H](CCC(N)=O)NC(=O)[C@H](Cc2c[nH]c3ccccc23)NC(=O)[C@H]([C@@H](C)O)NC(=O)[C@H](CCC(N)=O)NC1=O`: the half-life at 20 µM in [1] was 2 to 3 h; in [2], greater than 6 h.

Take `CC(=O)N[C@H](CCCNC(=N)N)C(=O)N[C@H]1CCSC[C@@H](C(=O)N[C@@H](Cc2ccc(OCCN)cc2)C(=O)N[C@@H](Cc2ccc3ccccc3c2)C(=O)N[C@@](C)(CCCCN)C(=O)N[C@@H](CCC(=O)O)C(=O)N[C@@H](CC(N)=O)C(=O)N[C@@H](CC(N)=O)C(N)=O)NC(=O)[C@H](CCC(N)=O)NC(=O)[C@H](Cc2c[nH]c3ccccc23)NC(=O)[C@H]([C@@H](C)O)NC(=O)[C@H](CCC(N)=O)NC1=O`: the half-life at 20 µM in series [1] was 3 to 6 h; in [2], greater than 6 h.

For the compound `CC(=O)N[C@H](C(=O)N[C@H]1CCSC[C@@H](C(=O)N[C@@H](Cc2ccc(OCCN)cc2)C(=O)N[C@@H](Cc2ccc3ccccc3c2)C(=O)N[C@@](C)(CCCCN)C(=O)N[C@@H](CCC(=O)O)C(=O)N[C@@H](CC(N)=O)C(=O)N[C@@H](CC(N)=O)C(N)=O)NC(=O)[C@H](CCC(N)=O)NC(=O)[C@H](Cc2c[nH]c3ccccc23)NC(=O)[C@H]([C@@H](C)O)NC(=O)[C@H](CCC(N)=O)NC1=O)[C@@H](C)O`, the half-life at 20 µM was 2 to 6 h in [1] and greater than 6 h in series [2].

As to `CC(=O)N[C@H](Cc1ccccc1)C(=O)N[C@H]1CCSC[C@@H](C(=O)N[C@@H](Cc2ccc(OCCN)cc2)C(=O)N[C@@H](Cc2ccc3ccccc3c2)C(=O)N[C@@](C)(CCCCN)C(=O)N[C@@H](CCC(=O)O)C(=O)N[C@@H](CC(N)=O)C(=O)N[C@@H](CC(N)=O)C(N)=O)NC(=O)[C@H](CCC(N)=O)NC(=O)[C@H](Cc2c[nH]c3ccccc23)NC(=O)[C@H]([C@@H](C)O)NC(=O)[C@H](CCC(N)=O)NC1=O`, the half-life at 20 µM is 2 to 3 h in series [1] and 3 to 6 h in series [2].

On to `CC(=O)N[C@H]1CCSC[C@@H](C(=O)N[C@@H](Cc2ccc(OCCN)cc2)C(=O)N[C@@H](Cc2ccc3ccccc3c2)C(=O)NC2(C(=O)N[C@@H](CCC(=O)O)C(=O)N[C@@H](CC(N)=O)C(=O)N[C@@H](CC(N)=O)C(N)=O)CC2)NC(=O)[C@H](CCC(N)=O)NC(=O)[C@H](Cc2c[nH]c3ccccc23)NC(=O)[C@H]([C@@H](C)O)NC(=O)[C@H](CCC(N)=O)NC1=O`, for which the half-life at 20 µM in series [1] was greater than 6 h; in [2] it was 1 to 6 h.
